An excerpt weighted towards active compounds, which were near 0.62% of everything screened.
miR-21 FLuc: miR-21 reporter, rising signal; Potency, µM (titrated, usually from 38.3 µM); AID 2288; 340,000 tested, under 10 active; HeLa miR-21 FLuc reporter, luciferase, 48 h; active = well fitted rising curve with a large enough effect; inconclusive = small, poorly fitted or top-dose-only effect; inactive = no such curve, though single readings can be large or run the other way;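 note: miR-21 action dims this reporter so a rising signal means less miR-21 action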
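Using DMEM plus 10% FBS, HeLa miR-21-FLuc cells are incubated with test compounds (final up to about 40uM) for 48 hours; firefly luciferase signal is then imaged following reagent-mediated lysis.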
IL-2 act: IL-2 activation. AID 652025. 0.065% of 360,000 active. activation, % (series mostly up to about 46 µM). IL-2 activation reporter assay, cell-based qHTS; stimulated with anti-CD3/CD4/CD28 beads; in transgenic mouse T cells; in the data active = activation above about 50%; inconclusive = mostly about 30% to 49%
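Quantitative HTS in unstimulated transgenic mouse T cells, with memory T cells as non-tolerant control and PMA/ionomycin as tolerance-bypass control. Compound pretreatment lasted 60 minutes before 18 h bead stimulation; EGFP/DsRed fluorescence read.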
uPA generation: inhibitors of cell surface uPA generation; cell surface uPA generation assay, qHTS; Potency, µM (titrated, usually from 38.3 µM), hits mostly inhibitors; 0.31% of 330,000 active; AID 540303; active = well fitted inhibition curve with a large enough effect; inconclusive = small, poorly fitted or top-dose-only effect; inactive = no such curve, though single readings can be large or run the other way; tested in mouse RAW 264.7 cells; also: nearly all actives have a fitted effect of over 55% in size
Epigenetic derep: derepresses silenced GFP reporter in murine cells; 0.2% of 280,000 active; murine LDR cells, GFP reporter derepression, 30 h; AID 1865; Potency, µM (series often up to 53.9 µM), most hits filed as activators; also: nearly all actives have a fitted effect of over 60% in size
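Readout is the number of GFP-expressing murine LDR cells, counted by cytometry following washing. Cells were treated with compound for 30 h at 37 C; the stably integrated CMV-GFP locus is normally silent.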
PINK1 expr mod: changes PINK1 expression | PINK1 immunofluorescence, high-content cytometry, 24 h | Potency, µM (doses to about 76.6 µM), most hits filed as activators | 0.2% of 410,000 active; active = well fitted activation curve with a large enough effect; inconclusive = small, poorly fitted or top-dose-only effect; cell line not stated here; also: nearly all actives have a fitted effect of over 65% in size
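Stable cell line treated 24 h with compounds at 5 concentrations (CCCP controls), then fixed and immunostained for PINK1 plus nuclear and cell stains; PINK1 immunofluorescence quantified by laser-scanning microplate cytometry.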
p53 reactivation: mutant p53 re-activation in reporter cells | H1299 p53-A138V BP100-luciferase reporter, luminescence, 24 h | Potency, µM (doses to about 92.2 µM), actives largely listed as activators | 0.063% of 320,000 active | AID 504706; also: nearly all actives have a fitted effect of over 45% in size
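H1299 (p53-null), stable ts p53-A138V + BP100-Luc; 1000 cells/well, Opti-MEM/10% FBS; cpd 4 pt, 1:5; 24 h, 37 deg C, 5% CO2; detection reagent 10 min RT; luminescence.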
Hits are given with their value. Unless noted, calls follow the shape of the dose curve; as a rule, active = well fitted curve in the direction sought with a large enough effect; inconclusive = small, poorly fitted or top-dose-only effect, or another doubt; inactive = no such curve, though single readings can be large; an effect the other way counts as inactive or inconclusive.

What do the screens show for `O=[N+]([O-])c1cc2c(c([N+](=O)[O-])c1)Nc1ccccc1O2`?
IL-2 act: inactive; PINK1 expr mod: 14µM

What do the screens show for `O=C1Nc2ccccc2Oc2cc([N+](=O)[O-])cc(Oc3ccccc3)c21`?
miR-21 FLuc: inactive; IL-2 act: inactive; uPA generation: inactive; Epigenetic derep: inconclusive; PINK1 expr mod: inactive; p53 reactivation: inactive

Results for Cc1cc(-c2ccc(C(C)C)c(S(=O)(=O)N3CCN(c4ccccn4)CC3)c2)on1 ?
miR-21 FLuc: inactive; IL-2 act: inactive; uPA generation: 0.89µM; PINK1 expr mod: inactive; p53 reactivation: inactive

Results for CN1CCCN(C(=O)[C@@H]2C[C@@H](Sc3nc4ccccc4[nH]3)CN2Cc2ccc(OC(F)(F)F)cc2)CC1 ?
PINK1 expr mod: inactive

What do the screens show for `CN1C(=O)/C(=C\c2ccc(N(C)C)cc2)OC1=S`?
miR-21 FLuc: inactive; IL-2 act: inconclusive; uPA generation: inactive; PINK1 expr mod: 32µM

How did CCCCC#Cc1ccc2c(c1)COc1c3ccccc3nn1-2 do in these assays?
miR-21 FLuc: inactive; IL-2 act: inactive; uPA generation: inactive; Epigenetic derep: inactive; PINK1 expr mod: inactive; p53 reactivation: inactive

How did C(#Cc1ccc2c(c1)COc1c3ccccc3nn1-2)c1ccccc1 do in these assays?
IL-2 act: inactive; uPA generation: inactive; PINK1 expr mod: inactive; p53 reactivation: inconclusive

What do the screens show for `N#CCCCC#Cc1ccc2c(c1)COc1c3ccccc3nn1-2`?
IL-2 act: inactive; uPA generation: 10µM; PINK1 expr mod: inactive; p53 reactivation: inactive

Results for C#Cc1ccc2c(c1)COc1c3ccccc3nn1-2 ?
IL-2 act: inactive; uPA generation: 13µM; PINK1 expr mod: inactive

Results for Cc1c(C(=O)N2CCCC(c3ccccc3)C2)sc2ncnc(NCCc3ccccn3)c12 (stereo not drawn) ?
PINK1 expr mod: inactive

Results for COC(=O)c1c(OCc2cccnc2)cc(=O)n2c1CCN(C(=O)c1ccc(OC)c(F)c1)CC2 ?
PINK1 expr mod: inactive

What do the screens show for `COc1cc(OC)c(/C=C2\C(=O)Nc3ccccc32)c(OC)c1`?
IL-2 act: inactive; uPA generation: 7.9µM; PINK1 expr mod: inactive; p53 reactivation: inactive

Results for O=C(NCCN1Cc2ccccc2OC(c2ccsc2)C1)c1cncs1 (stereo not drawn) ?
PINK1 expr mod: inactive

What do the screens show for `CC(=O)Nc1sc2c(c1-c1nc3ccccc3s1)CN(C(C)C)CC2`?
IL-2 act: inactive; uPA generation: 2µM; PINK1 expr mod: inactive; p53 reactivation: inactive

What do the screens show for `Cn1c2ccccc2c(=O)c2ccc(C#Cc3ccc(N)cc3)cc21`?
miR-21 FLuc: inactive; IL-2 act: inactive; uPA generation: 6.3µM; PINK1 expr mod: inactive

Results for Cn1c2ccccc2c(=O)c2cc(C#CC3=CCCCC3)ccc21 ?
IL-2 act: inactive; uPA generation: 6.3µM; PINK1 expr mod: inactive; p53 reactivation: inconclusive

What do the screens show for `CCN(CC)c1ccc(N)cc1`?
IL-2 act: inactive; uPA generation: inactive; PINK1 expr mod: 14µM; p53 reactivation: inactive

Results for COC(=O)c1cc(=O)n(-c2ccccc2)c(=Nc2ccccc2)s1 ?
miR-21 FLuc: inactive; IL-2 act: inactive; uPA generation: 4.5µM; Epigenetic derep: inactive; PINK1 expr mod: inactive; p53 reactivation: inactive

How did CCOC(=O)c1ccc(N=c2sc(C(=O)OC)cc(=O)n2-c2ccc(C(=O)OCC)cc2)cc1 do in these assays?
miR-21 FLuc: inactive; IL-2 act: inactive; uPA generation: inconclusive; Epigenetic derep: inactive; PINK1 expr mod: inactive; p53 reactivation: inactive

How did COC(=O)c1cc(=O)n(Cc2cccs2)c(=Nc2ccccc2)s1 do in these assays?
miR-21 FLuc: inactive; IL-2 act: inactive; uPA generation: inconclusive; Epigenetic derep: 18µM; PINK1 expr mod: inactive; p53 reactivation: inactive

What do the screens show for `COC(=O)c1cc(=O)n(Cc2ccc(F)cc2)c(=Nc2ccccc2)s1`?
miR-21 FLuc: inactive; IL-2 act: inactive; uPA generation: 7.1µM; Epigenetic derep: inactive; PINK1 expr mod: inactive; p53 reactivation: inactive

How did COC(=O)c1cc(=O)n(CCc2ccc(OC)c(OC)c2)c(=Nc2ccc(F)c(Cl)c2)s1 do in these assays?
miR-21 FLuc: inactive; IL-2 act: inactive; uPA generation: 6.3µM; Epigenetic derep: inconclusive; PINK1 expr mod: inactive; p53 reactivation: inactive

What do the screens show for `CNC(=O)C1CC(=O)N(CCc2ccc(OC)c(OC)c2)C(=Nc2ccc(F)cc2)S1` (stereo not drawn)?
miR-21 FLuc: inactive; IL-2 act: inactive; uPA generation: inactive; Epigenetic derep: inactive; PINK1 expr mod: inactive; p53 reactivation: inactive

How did O=C(NCCc1nnc2n1CCN(Cc1cc3ccccc3o1)CC2)c1ccoc1 do in these assays?
PINK1 expr mod: inactive

How did COC(=O)c1cc(=O)n(Cc2ccc(OC)c(OC)c2)c(=Nc2ccc(F)cc2)s1 do in these assays?
miR-21 FLuc: inactive; IL-2 act: inactive; uPA generation: 4.5µM; Epigenetic derep: inconclusive; PINK1 expr mod: inactive; p53 reactivation: inactive

Results for COC(=O)c1cc(=O)n(Cc2ccco2)c(=Nc2ccc(F)cc2)s1 ?
miR-21 FLuc: inactive; IL-2 act: inactive; uPA generation: inconclusive; Epigenetic derep: inactive; PINK1 expr mod: inactive; p53 reactivation: inactive

Results for COc1ccc(OC)c(/C=C/c2ccccc2)c1 ?
PINK1 expr mod: inactive

What do the screens show for `COc1ccc2c(c1)c(/C=C/c1cc[n+](C)cc1)cn2C`?
miR-21 FLuc: inactive; IL-2 act: 238; uPA generation: inactive; PINK1 expr mod: inactive; p53 reactivation: inconclusive

How did CC(C)N1C(=O)S/C(=C/c2ccc3c(c2)n(C)c(=O)n3C)C1=O do in these assays?
miR-21 FLuc: inactive; IL-2 act: inactive; uPA generation: inactive; Epigenetic derep: inactive; PINK1 expr mod: inactive; p53 reactivation: inactive

Results for CCN(CC)c1ccc(/C=C2\SC(=O)N(C(C)C)C2=O)o1 ?
miR-21 FLuc: inconclusive; IL-2 act: inactive; uPA generation: inactive; Epigenetic derep: 7.1µM; PINK1 expr mod: inconclusive; p53 reactivation: inactive

Results for COc1ccc(-c2cc(C(F)(F)F)c3c(N)c(C(=O)NCCSC)sc3n2)cc1 ?
miR-21 FLuc: inactive; IL-2 act: 119; uPA generation: inactive; PINK1 expr mod: inactive

How did CC(=O)c1sc2nc(-c3cccs3)cc(C(F)(F)F)c2c1N do in these assays?
miR-21 FLuc: inactive; IL-2 act: inactive; uPA generation: inactive; Epigenetic derep: 16µM; PINK1 expr mod: inconclusive; p53 reactivation: inactive

Results for CCn1c(/C=C/c2c[nH]c3ccccc23)nc2ccccc2c1=O ?
miR-21 FLuc: inactive; IL-2 act: inactive; uPA generation: inactive; Epigenetic derep: inactive; PINK1 expr mod: inconclusive; p53 reactivation: inactive
